The entries are a selection whose mix differs from that of the whole data set. Results filed as inconclusive are left out. The source made the active and inactive calls. Calls follow the shape of the dose curve; as a rule, active = well fitted inhibition curve with a large enough effect; inconclusive = small, poorly fitted or top-dose-only effect; inactive = no such curve, though single readings can be large or run the other way.
Experiment: qHTS Assay for Inhibitors of MBNL1-poly(CUG) RNA binding: Counterscreen HTRF assay
Conditions: His-Menin/biotin-MLL peptide TR-FRET counterscreen; at 19.2 µM (top of the series)
Excerpt: NIH Chemical Genomics Center [NCGC] NIH Molecular Libraries Probe Production Centers Network [MLPCN] MLPCN Grant: R03 MH087421-01 Assay Submitter (PI): Charles Thornton NCGC Assay Overview: Expanded CTG repeats in the 3' untranslated region of the DM protein kinase (DMPK) gene causes type I myotonic dystrophy (DM1). DM1 is a multi-systemic disease with a prevalence of 1/7000. Clinical features include myotonia, progressive muscle weakness and wasting, cardiac arrhythmia, insulin resistance, hypersomnolence, cataracts, and other symptoms. The pathogenic effect of expanded CTG repeats stems from deleterious effects of the mutant transcript. CUGexp mRNA accumulates in nuclear foci and sequesters proteins of the muscleblind family, of which MBNL1 is the most common family member in skeletal muscles. […] This brings the terbium label within close proximity to XL665 to allow time-resolved fluorescence resonance energy transfer (TR-FRET). […]
This assay uses a ratiometric measurement of TR-FRET binding assay with His-Menin and Biotin-MLL peptide. […] (3) Add 1 ul of 0.22 ng/ul terbium labeled anti-His antibody (0.055 ng/ul final concentration) (4) Add 1 ul of 20 nM streptavidin-XL665 (5 nM final concentration) (5) Incubate 60 min at room temperature (6) Detect the assay plate in a EnVision plate reader (PerkinElmer) with Ex=340 nm, Em1=665 nm and Em2=545 nm.

SMILES: C/C1=C2N=C(/C=C3N=C(/C(C)=C4\[N-][C@@](C)([C@@H]5N=C1[C@](C)(CCC(=O)NC[C@@H](C)OP(=O)([O-])O[C@H]1[C@@H](O)[C@@H](n6cnc7cc(C)c(C)cc76)O[C@@H]1CO)[C@H]5CC(N)=O)[C@@](C)(CC(N)=O)[C@@H]4CCC(N)=O)[C@@](C)(CC(N)=O)[C@@H]\3CCC(N)=O)C(C)(C)[C@@H]/2CCC(N)=O.[C-]#N.[Co+3]
- activity, negative = inhibition: inactive: 28.3%

From PubChem BioAssay AID651843 (National Center for Advancing Translational Sciences (NCATS), 2012)
